## Measured affinities in a library of Ab-14 heavy chain variants

Reference: Engelhart et al. 2022, doi:10.1038/s41597-022-01779-4. File: FLAb, binding data.

All variants were tested on one target, the spike HR2 peptide PDVDLGDISGINAS (SARS-CoV-2).

Ab-14 is the parent antibody, in scFv form: VH, then three GGGGS repeats, then VL. The light chain is unchanged in all variants.
VH: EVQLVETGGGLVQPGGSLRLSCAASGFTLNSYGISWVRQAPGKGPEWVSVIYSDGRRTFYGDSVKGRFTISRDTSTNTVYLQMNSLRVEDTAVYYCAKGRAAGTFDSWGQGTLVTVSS
VL: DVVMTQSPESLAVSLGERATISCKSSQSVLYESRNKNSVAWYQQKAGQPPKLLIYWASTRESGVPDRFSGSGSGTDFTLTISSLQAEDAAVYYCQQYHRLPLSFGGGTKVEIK

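Phage display of a naive human antibody library on the peptide gave the parent. AAYL49 was designed without a model: most single CDR substitutions and a random sample of double and triple ones. In AlphaSeq, yeast of one mating type display the scFv and yeast of the other type display the target. Mating (16 h, 30 °C) was followed by selection of diploids and sequencing of their barcodes. Scores were corrected for input abundance and mapped to Kd with protein pairs of known affinity run in the same pool. Each pool was mated in three replicate cultures.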

Substitutions are numbered in sequence along the VH above, starting at 1 (not Kabat).
All variants listed here change V50 of the VH, counted from its first residue.
Values are log10 of the apparent Kd in nM; lower means stronger binding.
Averages over replicates are reported, and they cover detected replicates only.
Where no diploid with the target was found in that replicate, the entry reads "nd": below detection, most likely a poor binder, though not proof of it.
Order: sorted from the lowest average up, undetected variants last.
Three control strains display no target. For library AAYL49, 15% of the pairings with them gave a signal, with a median of 4.06 and one signal in twenty below 2.83, so weak values seen in few replicates may be background.
For reference, the parent read 0.65 as the reference entry and 4.11 (one replicate of three) as a member of this library.

Variant S31T+V50T+T104R showed 2.39, 2.34, 2.45 (mean 2.39). Variant V50C+R56L+G61M showed nd, 2.46, nd. Variant V50H+A102Y showed nd, 2.49, nd. With V50E+Y52I+G55P the result was nd, nd, 3.27. With V50G+G55F+T104Q the result was nd, 3.34, nd. For V50G+R100F, the assay gave nd, nd, 3.56. Variant G26M+V50P+S63Y showed 3.80, nd, nd.

With V50S+F59N+A101Q the result was 3.62, 3.63, 4.21 (mean 3.82). Variant N30Q+V50T+G55Q showed nd, 3.84, 3.90 (mean 3.87). Variant G26L+V50H+S107K gave nd, nd, 3.89. For V50Q+Y60M, the assay gave nd, 3.94, 3.93 (mean 3.94). For V50L+T104F+D106V, the assay gave 3.13, 4.61, 4.11 (mean 3.95). Variant V50F+I51M+K65F gave nd, 4.02, nd. Variant V50G+G61L+G99C gave nd, 4.04, nd.

With V50F+G99A+A101E the result was 4.04, 4.04, 4.50 (mean 4.19). For V50E+Y52V+A102K, the assay gave nd, 4.25, nd. With V50R+G99F+G103T the result was nd, 4.59, 3.94 (mean 4.26). With T28L+V50G+R100A the result was 4.33, nd, nd. With Y32P+V50W+A102G the result was 4.47, nd, nd. Variant V50S+G55C+R57S showed 5.15, nd, 4.00 (mean 4.58). Variant V50G+G103C+D106I gave nd, 4.68, nd.

With I34W+V50C+F105K the result was nd, 5.08, 4.78 (mean 4.93). Variant V50F+Y52L+G99H gave nd, 5.28, nd. Variant V50Y+Y52I+R100T gave nd, nd, 5.44. Variant I34Y+V50Q+T58A gave nd, nd, 5.45. Variant V50N+I51N gave 6.28, 5.43, nd (mean 5.85). Variant Y32F+V50W+Y60K gave nd, nd, nd. Variant V50E+R100N+S107L gave nd, nd, nd.

Variant S31G+V50E+F105M gave nd, nd, nd. Variant V50C+R100K+A102D showed nd, nd, nd. Variant F27E+V50K+S107F showed nd, nd, nd. With V50P+R100S+D106P the result was nd, nd, nd. Variant V50C+D54Q+G99A showed nd, nd, nd. Variant S31D+Y32P+V50W showed nd, nd, nd. With L29T+V50E+R100P the result was nd, nd, nd.

Variant G33Y+V50E+S107F showed nd, nd, nd. Variant V50G+D54Y gave nd, nd, nd. With G33A+V50A+R56L the result was nd, nd, nd. Variant V50N+Y52I+Y60T showed nd, nd, nd. Variant V50R+T58N+G103N showed nd, nd, nd. With F27N+V50T+F105Y the result was nd, nd, nd. Variant I34S+V50L+F105E gave nd, nd, nd.

With V50Y+Y52I+G61Q the result was nd, nd, nd. Variant V50E+R57W+S107E showed nd, nd, nd. Variant V50I+G55W+G61A gave nd, nd, nd. For V50N+R100V+G103E, the assay gave nd, nd, nd. For V50F+T104M+D106M, the assay gave nd, nd, nd. For V50E+D62H+S63I, the assay gave nd, nd, nd. Variant V50D+S53M+R57F showed nd, nd, nd.

Again, the first 4 entries without any signal:

With Y32F+V50W+Y60K the result was nd, nd, nd.
With V50E+R100N+S107L the result was nd, nd, nd.
With S31G+V50E+F105M the result was nd, nd, nd.
With V50C+R100K+A102D the result was nd, nd, nd.